Source: PMC9476189 (ACS Omega, 2022)
Marks after values point to notes of the source that are not given here.

The chains behind the UniProt entries cited, without tags or fusion partners. Residues count along the entry.
UniProt P22303, 32-614: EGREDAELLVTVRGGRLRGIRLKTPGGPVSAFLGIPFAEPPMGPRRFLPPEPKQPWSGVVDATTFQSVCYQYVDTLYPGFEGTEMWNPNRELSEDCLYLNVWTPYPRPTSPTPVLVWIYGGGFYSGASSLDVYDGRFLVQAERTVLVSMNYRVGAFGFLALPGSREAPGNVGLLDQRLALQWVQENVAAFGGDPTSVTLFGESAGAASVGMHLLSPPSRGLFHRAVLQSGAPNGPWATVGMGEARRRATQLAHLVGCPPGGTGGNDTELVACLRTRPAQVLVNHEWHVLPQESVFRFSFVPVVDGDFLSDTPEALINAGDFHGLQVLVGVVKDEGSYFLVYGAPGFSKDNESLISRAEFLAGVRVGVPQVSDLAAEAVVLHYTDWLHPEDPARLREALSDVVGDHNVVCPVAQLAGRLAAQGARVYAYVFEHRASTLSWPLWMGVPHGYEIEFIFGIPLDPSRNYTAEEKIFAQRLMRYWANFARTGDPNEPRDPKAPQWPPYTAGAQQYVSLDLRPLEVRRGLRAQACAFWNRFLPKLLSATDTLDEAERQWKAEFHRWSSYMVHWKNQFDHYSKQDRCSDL

Molecular target: AChE (Homo sapiens, UniProt P22303)
Details: mean ± SEM, triplicate

## CNC(=O)Oc1ccc2c(c1)[C@]1(C)CCN(C)[C@@H]1N2C [Eserine, reference compound]
  AChE inhibition, inhibition (%) at 0.5 mM: 91.27±1.17^a %
